Our source for the IC50 values is US10654808B2, “Tyrosine kinase inhibitor and pharmaceutical composition comprising same” (GUANGDONG RAYNOVENT BIOTECH CO., LTD., priority 2015, dated 2020).

The chains behind the UniProt entries cited, without tags or fusion partners. Residues count along the entry.
UniProt P11362, 22-822 limits assumed: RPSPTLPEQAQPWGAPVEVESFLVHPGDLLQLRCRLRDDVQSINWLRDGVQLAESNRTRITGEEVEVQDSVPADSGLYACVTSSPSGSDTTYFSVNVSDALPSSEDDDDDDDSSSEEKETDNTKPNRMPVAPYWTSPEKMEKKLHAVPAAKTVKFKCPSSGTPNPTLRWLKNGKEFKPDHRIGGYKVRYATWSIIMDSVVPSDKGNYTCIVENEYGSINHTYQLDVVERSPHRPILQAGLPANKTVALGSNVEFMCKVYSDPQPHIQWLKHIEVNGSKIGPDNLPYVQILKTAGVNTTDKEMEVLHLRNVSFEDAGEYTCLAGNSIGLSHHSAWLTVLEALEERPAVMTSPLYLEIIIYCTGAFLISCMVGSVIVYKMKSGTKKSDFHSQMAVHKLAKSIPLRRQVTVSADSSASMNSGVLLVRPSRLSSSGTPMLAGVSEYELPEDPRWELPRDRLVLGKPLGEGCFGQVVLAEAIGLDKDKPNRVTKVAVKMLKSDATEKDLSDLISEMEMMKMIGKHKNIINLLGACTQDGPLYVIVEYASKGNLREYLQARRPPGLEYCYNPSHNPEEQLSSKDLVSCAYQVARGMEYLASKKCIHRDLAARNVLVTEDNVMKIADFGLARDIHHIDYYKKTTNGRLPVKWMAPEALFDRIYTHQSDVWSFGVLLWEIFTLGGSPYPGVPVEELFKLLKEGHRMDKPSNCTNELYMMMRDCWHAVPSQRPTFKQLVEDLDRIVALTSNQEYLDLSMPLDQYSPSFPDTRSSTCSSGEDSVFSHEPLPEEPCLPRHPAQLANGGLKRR
UniProt P09619, 33-1106 limits assumed: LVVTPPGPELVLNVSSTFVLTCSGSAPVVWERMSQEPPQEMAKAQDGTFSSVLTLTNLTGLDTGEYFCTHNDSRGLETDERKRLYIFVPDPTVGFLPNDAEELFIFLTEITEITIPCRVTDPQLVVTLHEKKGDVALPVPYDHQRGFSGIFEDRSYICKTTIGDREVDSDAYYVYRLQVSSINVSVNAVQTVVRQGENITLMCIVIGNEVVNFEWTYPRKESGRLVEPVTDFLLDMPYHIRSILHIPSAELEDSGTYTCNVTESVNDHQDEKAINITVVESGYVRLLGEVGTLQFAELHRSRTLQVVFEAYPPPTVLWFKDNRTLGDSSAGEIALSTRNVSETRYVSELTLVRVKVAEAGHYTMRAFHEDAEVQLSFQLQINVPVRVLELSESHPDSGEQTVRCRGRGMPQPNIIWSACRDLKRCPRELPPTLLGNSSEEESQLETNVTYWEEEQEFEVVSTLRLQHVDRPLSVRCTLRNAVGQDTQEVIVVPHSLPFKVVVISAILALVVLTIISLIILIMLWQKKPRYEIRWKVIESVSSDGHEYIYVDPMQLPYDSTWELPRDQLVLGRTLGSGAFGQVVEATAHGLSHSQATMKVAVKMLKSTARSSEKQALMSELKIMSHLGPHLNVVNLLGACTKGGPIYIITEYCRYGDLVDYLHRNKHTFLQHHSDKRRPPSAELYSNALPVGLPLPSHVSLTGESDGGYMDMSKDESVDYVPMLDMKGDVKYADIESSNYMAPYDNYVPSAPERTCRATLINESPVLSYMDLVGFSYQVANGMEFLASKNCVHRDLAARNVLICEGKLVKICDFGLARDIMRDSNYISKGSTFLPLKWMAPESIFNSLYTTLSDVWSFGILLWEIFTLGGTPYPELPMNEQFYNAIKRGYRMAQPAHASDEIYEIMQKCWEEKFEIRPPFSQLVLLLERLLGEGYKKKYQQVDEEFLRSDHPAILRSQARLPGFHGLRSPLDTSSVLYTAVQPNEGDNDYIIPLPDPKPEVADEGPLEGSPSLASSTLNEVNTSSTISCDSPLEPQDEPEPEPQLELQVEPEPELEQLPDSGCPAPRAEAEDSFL
UniProt P35968, 20-1356 limits assumed: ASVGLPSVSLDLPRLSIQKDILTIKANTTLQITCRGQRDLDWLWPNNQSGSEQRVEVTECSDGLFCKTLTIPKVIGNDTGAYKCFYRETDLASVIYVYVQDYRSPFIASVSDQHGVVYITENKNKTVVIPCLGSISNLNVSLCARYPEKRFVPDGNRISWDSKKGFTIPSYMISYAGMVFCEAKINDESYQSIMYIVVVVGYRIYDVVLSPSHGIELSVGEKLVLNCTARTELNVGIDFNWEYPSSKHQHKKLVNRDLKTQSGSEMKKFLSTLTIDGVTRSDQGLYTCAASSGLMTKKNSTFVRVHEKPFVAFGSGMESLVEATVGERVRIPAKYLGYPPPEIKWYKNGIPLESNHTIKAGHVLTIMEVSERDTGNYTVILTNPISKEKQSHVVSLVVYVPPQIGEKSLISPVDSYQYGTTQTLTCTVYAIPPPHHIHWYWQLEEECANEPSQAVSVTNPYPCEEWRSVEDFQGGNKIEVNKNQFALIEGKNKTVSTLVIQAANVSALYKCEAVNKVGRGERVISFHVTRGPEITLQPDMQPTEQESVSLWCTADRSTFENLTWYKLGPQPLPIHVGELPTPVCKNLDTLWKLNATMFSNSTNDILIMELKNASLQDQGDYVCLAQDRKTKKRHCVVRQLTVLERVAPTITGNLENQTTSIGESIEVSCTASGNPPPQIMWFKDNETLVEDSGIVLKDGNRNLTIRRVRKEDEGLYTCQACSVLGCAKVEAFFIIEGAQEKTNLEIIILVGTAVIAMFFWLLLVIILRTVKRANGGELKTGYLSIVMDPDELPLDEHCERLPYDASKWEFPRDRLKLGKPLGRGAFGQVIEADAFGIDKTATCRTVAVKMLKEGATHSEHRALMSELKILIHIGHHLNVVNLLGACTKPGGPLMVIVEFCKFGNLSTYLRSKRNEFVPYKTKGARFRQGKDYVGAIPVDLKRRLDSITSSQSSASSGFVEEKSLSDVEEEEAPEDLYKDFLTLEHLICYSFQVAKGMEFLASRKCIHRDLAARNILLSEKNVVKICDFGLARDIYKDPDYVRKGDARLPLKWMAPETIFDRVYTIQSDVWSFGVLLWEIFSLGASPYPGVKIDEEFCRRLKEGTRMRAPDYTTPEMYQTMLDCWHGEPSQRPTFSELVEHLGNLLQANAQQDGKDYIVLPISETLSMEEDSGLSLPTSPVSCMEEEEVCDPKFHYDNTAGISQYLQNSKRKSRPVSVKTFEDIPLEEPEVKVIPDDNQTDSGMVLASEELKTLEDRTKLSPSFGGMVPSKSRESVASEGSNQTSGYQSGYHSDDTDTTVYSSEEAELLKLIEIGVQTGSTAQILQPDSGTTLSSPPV

Experiment [1] concerns the target FGFR1 (Homo sapiens, UniProt P11362). Briefly: Z'-LYTE in vitro enzyme activity assay, FGFR1. The note with it: read-out: IC50 detected by Z'-LYTE, FGFR1; 25 μM ATP, 60 minutes, room temperature. Here is the method:
(§1) The enzyme activity was measured by Z′-LYTE™ Detection Kinase Assay. The IC50 value of the compounds was used as an index to evaluate the inhibitory effect of the compounds on VEGFR2, FGFR1 and PDGFRB.
(§2) Recombinant human VEGFR2 and FGFR1 proteases were purchased from Life technology, PDGFRB Protease was purchased from Millipore.
(§3) Z-LYTE™ Kit Tyr1 and Tyr4 were purchased from Life technology. Multi-microplate reader, Envision (PerkinElmer) read board was used.
(§4) The test compounds were diluted 3 times with a concentration gradient, the final concentration was from 10 μM to 0.17 nM with a total of 11 concentrations, and each concentration had two parallel holes; the content of DMSO in the assay was 1%.
1 nM FGFR1 protein kinase, 2 μM Tyr4 peptide, 25 μM ATP, 50 mM HEPES (pH 7.5), 10 mM MgCl2, 1 mM EGTA, 0.01% BRIJ-35, 2 mM MnCl2, 1 mM DTT. The detector plate was Black Proxiplate 384-Plus plate (PerkinElmer), the reaction was performed at room temperature for 60 minutes, and the reaction system was 10 μl.
(§5) The reaction was stopped by adding 5 μl of DV reagent B (1:128) to the kinase reaction solution and incubated at 23° C. for 60 minutes. The Envision instrument was used to read the plate.
(§6) The data was converted to phosphorylation rate and inhibition rate and the 4 parameter curve fitting (Model 205 in XLFIT5, iDBS) was used to get IC50 data of the compounds.

Experiment [2] deals with PDGFRB (Homo sapiens, UniProt P09619). Put plainly: Z'-LYTE in vitro enzyme activity assay, PDGFRB. To be noted: read-out: IC50 detected by Z'-LYTE, PDGFRB; 100 μM ATP, 60 minutes, room temperature. On the procedure:
as §1, §2, §3, §4
40 nM PDGFRB protein kinase, 2 μM Tyr4 peptide, 100 μM ATP, 50 mM HEPES (pH 7.5), 10 mM MgCl2, 1 mM EGTA, 0.01% BRIJ-35, 2 mM MnCl2, 1 mM DTT. The detector plate was Black Proxiplate 384-Plus plate (PerkinElmer), the reaction was performed at room temperature for 60 minutes, and the reaction system was 10 μl.
as §5, §6

The target in experiment [3] is VEGFR2 (Homo sapiens, UniProt P35968). Briefly: Z'-LYTE in vitro enzyme activity assay, VEGFR2. To be noted: read-out: IC50 detected by Z'-LYTE, VEGFR2; 100 μM ATP, 60 minutes, room temperature. On the procedure: as §1, §2, §3, §4
3 nM VEGFR2 protein kinase, 2 μM Tyr1 peptide, 100 μM ATP, 50 mM HEPES (pH 7.5), 10 mM MgCl2, 1 mM EGTA, 0.01% BRIJ-35. The detector plate was Black Proxiplate 384-Plus plate (PerkinElmer), the reaction was performed at room temperature for 60 minutes, and the reaction system was 10 μl.
as §5, §6

Consider `COc1cc2nccc(Oc3ccc(Nc4c(N[C@H](C)CO)c(=O)c4=O)c(Cl)c3)c2cc1C(N)=O`, for which the IC50 in experiment [1], in experiment [2] and in experiment [3] was 200 to 1000 nM each time.

For `COc1cc2nccc(Oc3ccc(NC(=S)NC4CC4)c(Cl)c3)c2cc1-c1ncco1`, the IC50 lay in the range of 200 to 1000 nM in experiment [1], 50 to 200 nM in experiment [2] and 50 to 200 nM in experiment [3].

On to `COc1cc2nccc(Oc3ccc(Nc4c(N[C@@H](C)CO)c(=O)c4=O)c(Cl)c3)c2cc1C(N)=O`, for which the half-inhibitory concentration (IC50) in experiment [1], in experiment [2] and in experiment [3] was 200 to 1000 nM each time.
